Sequences of proteins named here, by UniProt entry; tags and fusion partners are left off.
UniProt Q93009, whole entry: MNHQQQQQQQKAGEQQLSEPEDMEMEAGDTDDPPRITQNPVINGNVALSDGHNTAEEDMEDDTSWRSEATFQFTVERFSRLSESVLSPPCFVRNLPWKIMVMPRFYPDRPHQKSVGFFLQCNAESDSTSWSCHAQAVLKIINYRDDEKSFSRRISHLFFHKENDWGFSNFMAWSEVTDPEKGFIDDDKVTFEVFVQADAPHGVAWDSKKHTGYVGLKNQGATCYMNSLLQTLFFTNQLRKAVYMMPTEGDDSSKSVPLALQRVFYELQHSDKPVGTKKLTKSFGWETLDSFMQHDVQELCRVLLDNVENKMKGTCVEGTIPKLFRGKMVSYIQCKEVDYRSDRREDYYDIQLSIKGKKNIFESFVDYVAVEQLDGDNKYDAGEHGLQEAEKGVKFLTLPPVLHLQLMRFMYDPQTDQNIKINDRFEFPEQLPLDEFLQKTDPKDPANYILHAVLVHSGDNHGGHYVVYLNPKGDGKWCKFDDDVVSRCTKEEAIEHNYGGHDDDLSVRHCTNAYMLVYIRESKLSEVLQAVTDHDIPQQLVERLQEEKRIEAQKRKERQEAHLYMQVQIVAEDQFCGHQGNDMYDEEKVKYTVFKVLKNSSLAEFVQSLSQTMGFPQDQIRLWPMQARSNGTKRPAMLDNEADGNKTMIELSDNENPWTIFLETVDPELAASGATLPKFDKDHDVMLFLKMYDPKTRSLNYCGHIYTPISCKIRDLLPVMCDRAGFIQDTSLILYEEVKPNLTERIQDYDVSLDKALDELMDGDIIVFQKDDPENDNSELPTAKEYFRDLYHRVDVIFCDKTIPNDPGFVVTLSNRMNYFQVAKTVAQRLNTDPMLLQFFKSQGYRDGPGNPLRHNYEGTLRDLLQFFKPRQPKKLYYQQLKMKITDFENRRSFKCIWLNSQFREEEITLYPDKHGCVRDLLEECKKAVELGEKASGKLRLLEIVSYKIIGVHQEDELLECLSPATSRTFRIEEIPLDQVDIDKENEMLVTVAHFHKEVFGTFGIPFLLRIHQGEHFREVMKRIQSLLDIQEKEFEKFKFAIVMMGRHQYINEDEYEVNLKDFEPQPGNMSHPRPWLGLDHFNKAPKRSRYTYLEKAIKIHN

In article PMC5363571 (Oncotarget, 2016):

Target: USP7 (Homo sapiens, UniProt Q93009)
Set-up: Ub-AMC hydrolysis by recombinant USP7 (20 nM), 30 min pre-incubation, fluorescence read-out
Settings: inhibitor

| Structure (SMILES) | % Inhibition at 50 μM |
| --- | --- |
| CC[C@@]1(O)C(=O)OCc2c1cc1n(c2=O)Cc2cc3cc(O)ccc3nc2-1 [10-hydroxycamptothecin] | <5% |
| O=P1(N(CCCl)CCCl)NCCCO1 (centres unmarked) [Cyclophosphamide monohydrate] | <5% |
